Assay results reported in patent US20040191849A1, “Method for identifying fungicides” (priority 2002, published 2004).

Legend:
[1] = molecular target: T1, ribose-5-phosphate isomerase (RPI1) (Ustilago maydis, UniProt Q4P6V4); assay: biochemical
T1 sequence (Q4P6V4 1-286): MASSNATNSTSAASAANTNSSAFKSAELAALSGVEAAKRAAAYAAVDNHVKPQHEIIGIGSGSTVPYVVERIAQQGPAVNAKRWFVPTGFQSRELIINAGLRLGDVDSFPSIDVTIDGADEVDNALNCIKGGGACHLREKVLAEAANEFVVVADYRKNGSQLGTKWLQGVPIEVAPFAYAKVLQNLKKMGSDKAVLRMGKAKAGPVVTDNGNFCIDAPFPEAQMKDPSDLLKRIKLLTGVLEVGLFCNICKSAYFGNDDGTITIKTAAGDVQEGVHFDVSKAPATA

[2] = molecular target: T1, ribose-5-phosphate isomerase (RPI1); settings: coupled assay carried out in the presence of various phosphate concentrations

## COc1ccc(S(=O)(=O)N(C)C)cc1CCC(C)NCC1CC2(CCCC2)Oc2ccccc21.O=C(O)/C=C/C(=O)O (stereo not drawn) [Example 2]
[1]
  IC50: 20 µM

## O=C1C=C(n2cccn2)c2ccccc2C1=O [Example 1]
[1]
  IC50: 20 µM

## phosphate
[2]
  inhibitory effect of phosphate on the reaction: only very high phosphate concentrations show an inhibitory effecet
